By UniProt entry, the sequences of proteins in these tests, tags left out. Residues count along the entry.
UniProt Q07820, 171-327: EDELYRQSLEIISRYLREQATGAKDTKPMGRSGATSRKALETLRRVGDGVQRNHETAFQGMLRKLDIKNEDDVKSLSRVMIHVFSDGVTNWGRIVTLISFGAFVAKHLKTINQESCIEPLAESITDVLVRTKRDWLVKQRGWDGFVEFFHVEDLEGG

For one experiment, the target named is recombinant human Mcl-1 (residues 171-327) / Bim interaction (Homo sapiens (Human), UniProt Q07820). In words: biochemical. It counts as binding. Conditions: 0.1 nM Mcl-1(171-327), 0.05 nM biotin-Bim (51-76); read-out: Mcl-1 HTRF IC50. Background: Time-resolved FRET reads energy transfer from a long-lived donor to a nearby acceptor.
Regarding `CO[C@@]1(CNCCN2CCOCC2)/C=C/C[C@H](C)[C@@H](C)S(=O)(=O)NC(=O)c2ccc3c(c2)N(C[C@@H]2CC[C@H]21)C[C@@]1(CCCc2cc(Cl)ccc21)CO3` [Example 34, (1 S,3′R,6′R,7′S,8′E,11′S,12′R)-6-chloro-7′-methoxy-11′,12′-dimethyl-7′-(((2-(4-morpholinyl)ethyl)amino)methyl)-3,4-dihydro-2H, 15′H-spiro[naphthalene-1,22′-[20]oxa[13]thia[1,14]diazatetracyclo[14.7.2.0˜3,6˜.0˜19,24˜]pentacosa[8,16,18,24]tetraen]-15′-one 13′,13′-dioxide], the concentration for half-maximal inhibition (IC50) turned out to be 0.000495 µM. Still for that read-out and setting: then `CO[C@]1(CNCCN2CCOCC2)/C=C/C[C@H](C)[C@@H](C)S(=O)(=O)NC(=O)c2ccc3c(c2)N(C[C@@H]2CC[C@H]21)C[C@@]1(CCCc2cc(Cl)ccc21)CO3` [Example 36, (1S,3′R,6′R,7′R,8′E,11′S,12′R)-6-chloro-7′-methoxy-11′,12′-dimethyl-7′-(((2-(4-morpholinyl)ethyl)amino)methyl)-3,4-dihydro-2H,15′H-spiro[naphthalene-1,22′-[20]oxa[13]thia[1,14]diazatetracyclo [14.7.2.0~3,6~.0~19,24~]pentacosa[8,16,18,24]tetraen]-15′-one 13′,13′-dioxide], with 0.000554 µM; and `CO[C@@]1(CN2CCN(C(C)C)CC2)/C=C/C[C@H](C)[C@@H](C)S(=O)(=O)NC(=O)c2ccc3c(c2)N(C[C@@H]2CC[C@H]21)C[C@@]1(CCCc2cc(Cl)ccc21)CO3` [Example 239, (1S,3′R,6′R,7′S,8′E,11′S,12′R)-6-chloro-7′-methoxy-11′,12′-dimethyl-7′-((4-(1-methylethyl)-1-piperazinyl)methyl)-3,4-dihydro-2H,15′H-spiro[naphthalene-1,22′-[20]oxa[13]thia[1,14]diazatetracyclo [14.7.2.0~3,6~.0~19,24~]pentacosa[8,16,18,24]tetraen]-15′-one 13′,13′-dioxide], with 0.000146 µM.

Staying with this experiment, now noted: Mcl-1 HTRF IC50, TR-FRET, Mcl-1(171-327) / biotin-Bim (51-76).
In the case of `CO[C@]1(c2ccccn2)/C=C/C[C@H](C)[C@@H](C)S(=O)(=O)NC(=O)c2ccc3c(c2)N(C[C@@H]2CC[C@H]21)C[C@@]1(CCCc2cc(Cl)ccc21)CO3` (single isomer, unassigned) [Example 100321], the concentration for half-maximal inhibition (IC50) was 0.000209 µM.

The experiment is the same for the next values; noted with them: TR-FRET, Mcl-1(171-327) / biotin-Bim (51-76); read-out: Mcl-1 HTRF IC50.
Consider `CO[C@@]1(c2ccccn2)/C=C/C[C@H](C)[C@@H](C)S(=O)(=O)NC(=O)c2ccc3c(c2)N(C[C@@H]2CC[C@H]21)C[C@@]1(CCCc2cc(Cl)ccc21)CO3` [Example 100003, (1 S,3′R,6′R,7′S,8′E,11′S, 12′R)-6-chloro-7′-methoxy-11′,12′-dimethyl-7′-(2-pyridinyl)-3,4-dihydro-2H, 15′H-spiro[naphthalene-1,22′ [20]oxa[13]thia[1,14]diazatetracyclo[14.7.2.0-3,6˜.0˜19,24˜]pentacosa[8,16,18,24]tetraen]-15′-one 13′,13′-dioxide], for which the half-inhibitory concentration (IC50) was 0.00042 µM. With `C[C@@H]1[C@@H](C)C/C=C/[C@@](O)(CO)[C@@H]2CC[C@H]2CN2C[C@@]3(CCCc4cc(Cl)ccc43)COc3ccc(cc32)C(=O)NS1(=O)=O` [Example 100231, (1S,3′R,6′R,7′S,8′E,11′S,12′R)-6-chloro-7′-hydroxy-7′-(hydroxymethyl)-11′,12′-dimethyl-3,4-dihydro-2H,15′H-spiro[naphthalene-1,22′-[20]oxa[13]thia[1,14]diazatetracyclo [14.7.2.0~3,6~.0~19,24~]pentacosa[8,16,18,24]tetraen]-15′-one 13′,13′-dioxide], the IC50 worked out at 0.000312 µM. Regarding `C[C@@H]1[C@@H](C)C/C=C/[C@@](O)(CO)[C@@H]2CC[C@H]2CN2C[C@@]3(CCCc4cc(Cl)ccc43)COc3ccc(cc32)C(=O)NS1(=O)=O` [Example 100262, (1S,3′R,6′R,7′S,8′E,11′S,12′R)-6-chloro-7′-hydroxy-7′-(hydroxymethyl)-11′,12′-dimethyl-3,4-dihydro-2H,15′H-spiro[naphthalene-1,22′-[20]oxa[13]thia[1,14]diazatetracyclo [14.7.2.0~3,6~.0~19,24~]pentacosa[8,16,18,24]tetraen]-15′-one 13′,13′-dioxide], the 50% inhibitory concentration (IC50) was found to be 0.000134 µM.

In a further experiment the test system is human multiple myeloma cell line, OPM-2. In words: Cell viability assay (OPM-2 10 FBS), CellTiter-Glo. It counts as cell-based. The following applies: OPM-2, 16 h, read-out: OPM-2 10% FBS IC50 IP, OPM-2 cells, 10% FBS, 16 h, CellTiter-Glo. Here is the method: Cell viability assay (OPM-2 10 FBS)
The human multiple myeloma cell line, OPM-2, was cultured in complete growth medium containing RPMI 1640 and 10% fetal bovine serum (FBS). Cells were seeded into 384-well plates at 3000 cells/well density in complete growth medium containing 10% FBS, and incubated for 16 h with serially diluted test compounds in a 37° C. incubator with 5% CO2. Cell viability was tested using CellTiter-Glo® assay (Promega, Madison, Wis.) according to the manufacturer recommendations. Luminescence was determined using an EnVision® Multilabel plate reader 25 min after the addition of detection reagent. IC50 values were then calculated with Xlfit using a logistical 4-parameter fit model in GraphPad Prism (GraphPad Software, San Diego, Calif.) or in Genedata Screener® (Genedata, Basel, Switzerland).
(In general: ATP-based viability assays read luminescence as a measure of living cells.)
For `CO[C@@]1(CCN(C)C2CCCC2)/C=C/C[C@H](C)[C@@H](C)S(=O)(=O)NC(=O)c2ccc3c(c2)N(C[C@@H]2CC[C@H]21)C[C@@]1(CCCc2cc(Cl)ccc21)CO3` [Example 100418, (1S,3′R,6′R,7′S,8′E,11′S,12′R)-6-chloro-7′-(2-(cyclopentyl(methyl)amino)ethyl)-7′-methoxy-11′,12′-dimethyl-3,4-dihydro-2H,15′H-spiro[naphthalene-1,22′-[20]oxa[13]thia[1,14]diazatetracyclo [14.7.2.0~3,6~.0~19,24~]pentacosa[8,16,18,24]tetraen]-15′-one 13′,13′-dioxide], the IC50 was found to be 0.141 µM.

`C[C@@H]1[C@@H](C)C/C=C/[C@@](O)(C#CCCCN2CCOCC2)[C@@H]2CC[C@H]2CN2C[C@@]3(CCCc4cc(Cl)ccc43)COc3ccc(cc32)C(=O)NS1(=O)=O` [Example 100493, (1S,3′R,6′R,7′S,8′E,11′S,12′R)-6-chloro-7′-hydroxy-11′,12′-dimethyl-7′-(5-(4-morpholinyl)-1-pentyn-1-yl)-3,4-dihydro-2H,15′H-spiro[naphthalene-1,22′-[20]oxa[13]thia[1,14]diazatetracyclo [14.7.2.0~3,6~.0~19,24~]pentacosa[8,16,18,24]tetraen]-15′-one 13′,13′-dioxide]: the concentration for half-maximal inhibition (IC50) stood at 0.512 µM.

The same experiment, now with this note: OPM-2, 16 h, read-out: OPM-2 10% FBS IC50 IP, OPM-2 cells, 10% FBS, 16 h incubation.
With `C[C@@H]1[C@@H](C)C/C=C/[C@@](O)(CN2CCOCC2)[C@@H]2CC[C@H]2CN2C[C@@]3(CCCc4cc(Cl)ccc43)COc3ccc(cc32)C(=O)NS1(=O)=O` (single isomer, unassigned) [Example 194], the IC50 is 0.054 µM. `CCO[C@@]1(CN2CCN3CCOC[C@@H]3C2)/C=C/C[C@H](C)[C@@H](C)S(=O)(=O)NC(=O)c2ccc3c(c2)N(C[C@@H]2CC[C@H]21)C[C@@]1(CCCc2ccccc21)CO3` [Example 105, (1S,3′R,6′R,7′S,8′E,11′S,12′R)-7′-ethoxy-7′-((9aS)-hexahydropyrazino[2,1-c][1,4]oxazin-8(1H)-ylmethyl)-11′,12′-dimethyl-3,4-dihydro-2H, 15′H-spiro[naphthalene-1,22′-[20]oxa[13]thia[1,14]diazatetracyclo[14.7.2.0-3,6˜.0˜19,24˜]pentacosa[8,16,18,24]tetraen]-15′-one 13′,13′-dioxide]: the half-inhibitory concentration (IC50) was found to be 0.655 µM. On the same count and under the same terms, the value for `CC(C)N1CCO[C@]2(/C=C/C[C@H](C)[C@@H](C)S(=O)(=O)NC(=O)c3ccc4c(c3)N(C[C@@H]3CC[C@H]32)C[C@@]2(CCCc3cc(Cl)ccc32)CO4)C1` [Example 127, (1 S,3′R,6′R,7′S,8′E, 11′S,12′R)-6-chloro-11′,12′-dimethyl-4″-(1-methylethyl)-3,4-dihydro-2H,15′H-dispiro[naphthalene-1,22′-[20]oxa[13]thia[1,14]diazatetracyclo[14.7.2.0-3,6˜.0˜19,24˜]pentacosa[8,16,18,24]tetraene-7′,2″-[1,4]oxazinan]-15′-one 13′,13′-dioxide] was 6.12 µM. Still for that read-out and setting: then `CO[C@]1(CN2C[C@H]3CCCCN3CC2=O)/C=C/C[C@H](C)[C@@H](C)S(=O)(=O)NC(=O)c2ccc3c(c2)N(C[C@@H]2CC[C@H]21)C[C@@]1(CCCc2cc(Cl)ccc21)CO3` [Example 154, (1 S,3′R,6′R,7′R,8′E,11′S,12′R)-6-chloro-7′-methoxy-11′,12′-dimethyl-7′-(((9aR)-3-oxooctahydro-2H-pyrido[1,2-a]pyrazin-2-yl)methyl)-3,4-dihydro-2H,15′H-spiro[naphthalene-1,22′-[20]oxa[13]thia[1,14]diazatetracyclo[14.7.2.0-3,6˜.0˜19,24˜]pentacosa[8,16,18,24]tetraen]-15′-one 13′,13′-dioxide], with 0.554 µM; and `C[C@@H]1CS(=O)(=O)NC(=O)c2ccc3c(c2)N(C[C@@H]2CC[C@H]2[C@](O)(CN2CCN4CCOC[C@@H]4C2)CC[C@@H]1C)C[C@@]1(CCCc2cc(Cl)ccc21)CO3` [Example 405, (1S,3′R,6′R,7′S,10′S,11′S)-6-chloro-7′-((9aS)-hexahydropyrazino[2,1-c][1,4]oxazin-8(1H)-ylmethyl)-7′-hydroxy-10′,11′-dimethyl-3,4-dihydro-2H, 15′H-spiro[naphthalene-1,22′-[20]oxa[13]thia[1,14]diazatetracyclo[14.7.2.0-3,6˜.0˜19,24˜]pentacosa[16,18,24]trien]-15′-one 13′,13′-dioxide], with 0.018 µM; and `CCO[C@]1(CN2CCN(C(C)C)[C@H](C)C2)CCC[C@H](C)[C@@H](CCOC)S(=O)(=O)NC(=O)c2ccc3c(c2)N(C[C@@H]2CC[C@H]21)C[C@@]1(CCCc2cc(Cl)ccc21)CO3` [Example 519, (1S,3′R,6′R,7′R,11′S,12′R)-6-chloro-7′-ethoxy-12′-(2-methoxyethyl)-11′-methyl-7′-(((3R)-3-methyl-4-(2-propanyl)-1-piperazinyl)methyl)-3,4-dihydro-2H, 15′H-spiro[naphthalene-1,22′-[20]oxa[13]thia[1,14]diazatetracyclo[14.7.2.0-3,6˜.0˜19,24˜]pentacosa[16,18,24]trien]-15′-one 13′,13′-dioxide], with 0.116 µM.

For orientation: IC50 means the concentration that gives 50% inhibition.

The values above are taken from patent US10821115B2, “Compounds that inhibit Mcl-1 protein” (priority 2017, dated 2020).
